Results: publication PMC6889161, “Inhibitory characteristics of flavonol-3-O-glycosides from Polygonum aviculare L. (common knotgrass) against porcine pancreatic lipase” (Scientific Reports, 2019)

Molecular target: T1, Lipase from porcine pancreas type II (pancreatic lipase) (Sus scrofa, UniProt P00591)
T1 construct: purchased Sigma-Aldrich Co. (St. Louis, MO, USA); host or cells: porcine pancreas (tissue preparation)
T1 sequence (P00591 1-450): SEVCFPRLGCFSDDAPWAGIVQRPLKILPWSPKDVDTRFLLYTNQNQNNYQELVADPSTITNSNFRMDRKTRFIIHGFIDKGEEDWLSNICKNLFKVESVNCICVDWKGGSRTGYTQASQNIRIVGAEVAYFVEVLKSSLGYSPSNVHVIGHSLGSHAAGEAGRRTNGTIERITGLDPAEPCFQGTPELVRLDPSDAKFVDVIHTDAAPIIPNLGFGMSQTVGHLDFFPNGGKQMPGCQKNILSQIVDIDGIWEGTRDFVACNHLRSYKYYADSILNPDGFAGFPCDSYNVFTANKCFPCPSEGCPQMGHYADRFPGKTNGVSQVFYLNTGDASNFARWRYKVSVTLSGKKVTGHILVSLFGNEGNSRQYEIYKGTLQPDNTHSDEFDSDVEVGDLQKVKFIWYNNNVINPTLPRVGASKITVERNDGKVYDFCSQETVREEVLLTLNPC
Assay: Pancreatic lipase inhibition assay (4-MUO substrate, fluorescence)
Assay type: biochemical
Conditions: from RRA of PL at various concentrations, nonlinear regression
Method: The PL assay using 4-MUO as a substrate was conducted as described previously with slight modification[28],[29]. Lipase from porcine pancreas type II (i.e., pancreatic lipase) was dissolved in 50 mM Tris-HCl buffer (pH 8.0) to give 10 mg/mL, and centrifuged at 5,000 g for 10 min to remove insoluble material before the enzyme assay. Then, 50 µL of 0.5 mM 4-MUO solution dissolved in the above buffer and 100 µL of the sample solution dissolved in methanol (i.e., the inhibitor solution) were mixed in 96-well microplate to form the reaction system. The enzymatic hydrolysis was initiated by adding 50 µL of the PL solution to the reaction system (final 250 units/mL) at 37 °C. […] The inhibitory activities against PL were calculated for comparison with each other, as follows:1 Inhibition(%)=A0−AS/A0×100 where A0 is the relative fluorescence unit after the reaction for 30 min in the absence of sample (i.e., only methanol) and AS is the fluorescence unit in the presence of sample.
To determine the IC50, the RRA of PL in the presence of the sample at various concentrations was evaluated. […]

Substance: myricetin-3-O-α-L-rhamnopyranoside [Myricitrin]
- IC50: 92.9 µM
